Inhibition of DNase1 nuclease activity (hyperchromicity assay, pH 8, 0.1 mM CaCl2 and 1 mM MnCl2) after 20 min pre-incubation with skeletal muscle G-actin; activity without actin set 100% data for 1 substance are collected here from article PMC12040185.

The assay concerns the target recombinant murine DNase1 expressed in Pichia pastoris (Mus musculus) (UniProt P49183).

“skeletal muscle α-actin (from UniProt P68135 1-377) (natural protein)”: the inhibition of DNase1 nuclease activity (hyperchromicity assay, pH 8, 0.1 mM CaCl2 and 1 mM MnCl2) after 20 min pre-incubation with skeletal muscle G-actin; activity without actin set 100% worked out at 50%.
